Data on one substance can be found in PMC10671074, “Tumor Regression upon Intratumoral and Subcutaneous Dosing of the STING Agonist ALG-031048 in Mouse Efficacy Models” (International Journal of Molecular Sciences, 2023).

Protein sequences, listed by entry. Tags and fused reporters are not part of them.
UniProt Q86WV6, whole entry H232R: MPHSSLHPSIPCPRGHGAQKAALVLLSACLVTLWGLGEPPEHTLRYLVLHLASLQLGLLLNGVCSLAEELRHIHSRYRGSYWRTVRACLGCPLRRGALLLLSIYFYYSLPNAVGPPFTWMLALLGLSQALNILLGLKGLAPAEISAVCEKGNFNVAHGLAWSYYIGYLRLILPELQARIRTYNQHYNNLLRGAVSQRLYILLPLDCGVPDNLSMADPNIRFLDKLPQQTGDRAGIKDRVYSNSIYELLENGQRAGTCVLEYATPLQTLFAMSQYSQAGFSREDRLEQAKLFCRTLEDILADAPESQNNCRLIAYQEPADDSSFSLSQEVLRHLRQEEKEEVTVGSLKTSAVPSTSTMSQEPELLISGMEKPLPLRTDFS

The test system of test [1] is HEK 293 cells lacking functional STING. Briefly: HEK 293 STING Dual Null IRF reporter assay. Particulars: read-out: Reporter Cell Assay EC50, STING Dual Null IRF; HEK 293 STING null cell line; mean±standard deviation. (In general: Reporter assays use an easily measured gene product as a stand-in for the process of interest.)
Another test has as its target STING R232 (Homo sapiens, UniProt Q86WV6, H232R). Briefly: HEK 293 STING R232 IRF reporter assay. Also on record: host or cells: 293T-Dual hSTING-R232 (HEK 293T derived). It counts as cell-based. Particulars: HEK 293 STING R232 cells, digitonin dosing buffer 30 min, 20 h; mean±standard deviation; read-out: Reporter Cell Assay EC50, STING R232 IRF.

Consider “IFN-β: interferon β used as STING-independent control in the reporter cells”, for which the EC50 worked out at 8.55 ± 9.95 µM in test [1] and 0.84 ± 0.86 µM in the test with STING R232.

What is called EC50 is the concentration needed to bring the measured effect to its halfway point.
